Data from patent US11738087B2, “Lymph directing prodrugs” (Monash University, priority 2015, dated 2023).

Key:
[1] = Pharmacokinetic (PK) studies in rats after oral gavage (plasma free parent drug)
[2] = Lymphatic transport studies in rats (mesenteric lymph duct cannulated, intraduodenal infusion)

testosterone-succinic acid-TG [Compound 21]
AUC0-24 h fold increase compared with TU group ([1]; plasma testosterone exposure, SD female rats): 2.9 | Tmax ([1]; plasma testosterone, SD female rats, mean ± SEM): 1.1 ± 0.1 h | AUC0-24 h ([1]; plasma testosterone, SD female rats, normalized to 2 mg/kg equivalent testosterone dose, mean ± SEM): 0.0196 ± 0.0008 µM·h | Cmax ([1]; read-out: Cmax (nmol/L), plasma testosterone, conscious carotid artery cannulated SD female rats, normalized to 2 mg/kg equivalent testosterone dose, mean ± SEM): 13.7 ± 0.7 nmol/L | Transport of total TST derivatives in lymph (% of dose) ([2]; intraduodenal infusion, anaesthetised, mesenteric lymph-duct cannulated female SD rats, mean ± SEM (n≥3) or mean ± range (n=2)): 13.4 % of dose and 13.4 ± 1.7 % of dose | Fold increase (compared with control group dosed with TU) ([2]; lymphatic transport, testosterone series, female SD rats): 7.2

Several values for one entry are separate records, joined by “and”; a condition that tells them apart may be missing. Identical values can stand only once.
